Like-named read-outs stand apart in the source and are kept apart here.
Target: T1, human P2X4 receptor (Homo sapiens, UniProt Q99571)
T1 sequence (Q99571 1-388): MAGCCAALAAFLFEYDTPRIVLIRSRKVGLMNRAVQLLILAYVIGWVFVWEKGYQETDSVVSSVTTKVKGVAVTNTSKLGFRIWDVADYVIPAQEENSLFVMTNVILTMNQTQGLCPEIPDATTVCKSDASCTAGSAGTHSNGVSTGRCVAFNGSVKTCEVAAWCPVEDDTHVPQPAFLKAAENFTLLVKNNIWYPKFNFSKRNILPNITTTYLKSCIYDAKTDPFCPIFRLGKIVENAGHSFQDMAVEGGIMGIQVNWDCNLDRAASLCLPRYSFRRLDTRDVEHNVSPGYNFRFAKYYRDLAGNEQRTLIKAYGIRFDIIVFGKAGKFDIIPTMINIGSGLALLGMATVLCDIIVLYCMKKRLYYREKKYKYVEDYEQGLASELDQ
Test: P2X4 receptor antagonist activity, ATP-induced intracellular calcium (Fura-2 AM) in 1321N1 cells stably expressing human P2X4 receptor
Assay type: cell-based

**Q.** Which results are given for `CN(C)c1ncccc1C(=O)Nc1ccc(C2=NCC(=O)Nc3c2ccc2ccccc32)cc1.Cl.Cl` [Example 15, 2-(Dimethylamino)-N-[4-(2-oxo-2,3-dihydro-1H-naphtho[1,2-e][1,4]diazepin-5-yl)phenyl]nicotinamide dihydrochloride]?
**A.** IC50: 880 nM; selectivity for the P2X4 receptor (P2X4 versus P2X3 and P2X7 receptors, Table 11): high selectivity; IC50 (read-out: Inhibition of agonist-induced Ca^2+ influx (IC50), Human P2X4): 880 nM

— patent US10472333B2, “P2X4 receptor antagonist” (NIPPON CHEMIPHAR CO., LTD., priority 2013, dated 2019)
